Measured values as given in US8367726B2, “Acid salt of tolterodine having effective stability for transdermal drug delivery system” (SK Chemicals Co., Ltd., priority 2008, dated 2013).

Experiment: In vitro penetration test, Frantz cell mounted with hairless mouse skin
Details: 10 mg/mL in propylene glycol, 32° C.
Description: I mL of tolterodine salt was added onto a Frantz cell, which was mounted with a hairless mouse skin. Then, the amount of tolterodine penetrated through the skin at 32° C. was quantitated and its cumulative amount was measured.

Tolterodine Glucolate
Cumulative amount of tolterodine penetrated through the skin (0 hr): 0.0 µg
Cumulative amount of tolterodine penetrated through the skin (3 hr): 1.2 µg
Cumulative amount of tolterodine penetrated through the skin (6 hr): 4.7 µg
Cumulative amount of tolterodine penetrated through the skin (9 hr): 5.1 µg
Cumulative amount of tolterodine penetrated through the skin (12 hr): 8.3 µg
